## Ab-14 heavy chain CDR variants: yeast mating affinities

Target peptide (SARS-CoV-2 spike, HR2 region): PDVDLGDISGINAS

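The starting antibody came from a phage panning campaign against this peptide. These sequences belong to a second round, designed from the earlier measurements on random variants of the parent. Group labels follow the data file (Ctrl: baseline library sampled from a position-specific scoring matrix, with some repeated check sequences; GPLM: also part of the Gaussian process libraries; Gen: genetic algorithm; a sequence that several methods proposed may carry one label only). Affinity was read by AlphaSeq, a pooled yeast mating assay with surface-displayed partners. Pairs that bind mate more often; barcode pairs of the diploids are counted by sequencing. Each replicate has its own calibration line, from reference interactions of the BCL2 family. Each pool was mated in six replicate cultures.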

Parent scFv Ab-14: VH joined to VL by a (GGGGS)3 linker. Changes lie in the heavy chain CDRs alone.
VH: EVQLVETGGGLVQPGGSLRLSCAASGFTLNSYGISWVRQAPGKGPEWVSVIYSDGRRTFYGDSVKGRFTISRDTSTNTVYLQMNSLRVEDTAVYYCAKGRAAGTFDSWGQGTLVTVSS
VL: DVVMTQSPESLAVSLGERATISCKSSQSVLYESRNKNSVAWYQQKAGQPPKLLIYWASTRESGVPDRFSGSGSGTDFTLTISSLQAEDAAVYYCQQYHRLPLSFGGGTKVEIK

Substitutions are numbered in sequence along the VH above, starting at 1 (not Kabat). Numbers give log10(Kd / nM), so 0 is 1 nM and 3 is 1 µM. Smaller is tighter. A pair that was not seen in that replicate is written "nd"; this usually means weak binding, but a binder can also be missed.

| # | changes | group | log10 Kd (nM) by replicate | empty controls |
|---|---|---|---|---|
| 1 | G99R/R100E/T104S/D106P/S107L | Ctrl | nd nd nd nd nd nd | 0/18 |
| 2 | T28D/K65S/A102G/G103L/F105Y | Ctrl | nd nd nd nd nd nd | 0/18 |
| 3 | F59S/S63F | Ctrl | 1.67 nd nd 2.08 2.71 nd | 0/18 |
| 4 | N30G/S31Q/F59Q | Ctrl | nd 1.27 nd 1.62 1.56 2.30 | 0/18 |
| 5 | S53A/G103L | Ctrl | nd nd nd nd nd nd | 0/18 |
| 6 | T28H/R56C/A101L | Ctrl | nd nd nd nd nd nd | 0/18 |
| 7 | N30E/D106V | Ctrl | nd nd nd nd nd nd | 0/18 |
| 8 | S31E/I51D/A102H | Ctrl | nd nd nd nd nd nd | 0/18 |
| 9 | S53A/G61I/S107L | Ctrl | 1.26 0.53 0.40 0.19 0.37 1.72 | 1/18 (1.49) |
| 10 | S31M/T58Q/G61S/T104N | Ctrl | nd nd 3.18 nd nd nd | 1/18 (0.78) |
| 11 | S31D/T104A | Ctrl | nd nd nd nd nd nd | 0/18 |
| 12 | T28N/G99N/T104I/D106R | Ctrl | nd nd nd nd nd nd | 0/18 |
| 13 | G61S/R100S | Ctrl+GPLM_Gen | 1.11 1.53 1.86 nd 0.92 nd; 0.48 0.67 0.51 0.50 0.46 0.75 | 2/36 (1.48) |
| 14 | S31M/A101E/F105K/D106P | Ctrl | nd nd nd nd nd nd | 0/18 |
| 15 | R100Q/F105D | Ctrl | nd nd nd nd nd nd | 0/18 |
| 16 | T28H/A101F/D106N | Ctrl | 0.86 0.69 nd 0.94 1.20 0.73 | 0/18 |
| 17 | S31E/R100V | Ctrl | 0.26 0.21 0.18 0.42 0.25 0.51 | 0/18 |
| 18 | L29N/G61R/A102V | Ctrl | nd nd nd nd nd nd | 0/18 |
| 19 | S31D/D62G/A101Q/F105V | Ctrl | nd nd nd nd nd nd | 0/18 |
| 20 | S31D/G61I | Ctrl+GPLM_Gen | nd nd nd nd nd nd; 1.31 0.76 0.53 0.88 0.49 1.28 | 1/36 (1.88) |
| 21 | G26K/S31D/G61E/G103F | Ctrl | nd nd nd nd nd nd | 1/18 (0.65) |
| 22 | F27R/G61A/S63E | Ctrl | nd nd nd nd nd nd | 0/18 |
| 23 | S63N | Ctrl | 0.66 1.15 nd 1.22 1.59 nd | 1/18 (1.58) |
| 24 | R56I/G61E/S107R | Ctrl | 0.87 0.95 1.60 1.05 0.77 2.46 | 0/18 |
| 25 | T28V/R100E/A101N/D106F | Ctrl | nd nd nd nd nd nd | 0/18 |
| 26 | G61S/S107N | Ctrl | 0.15 nd nd 0.56 0.47 nd | 0/18 |
| 27 | F27E/T28K/G61L/A101H/D106M | Ctrl | nd nd nd nd nd nd | 0/18 |
| 28 | S31E/G61T/R100Q/A102S/S107T | Ctrl | 1.32 1.37 0.42 0.52 1.09 0.82 | 0/18 |
| 29 | R56S/D62P/S63E/R100K/F105D/S107P | Ctrl | nd nd nd nd nd nd; nd nd nd nd nd nd; nd nd nd nd nd nd | 0/54 |
| 30 | R56M/A101V/T104E | Ctrl | nd nd nd nd nd nd | 0/18 |

Excerpt, the final 3 entries:

| changes | group | log10 Kd (nM) by replicate | empty controls |
|---|---|---|---|
| S31E/G61T/R100Q/A102S/S107T | Ctrl | 1.32 1.37 0.42 0.52 1.09 0.82 | 0/18 |
| R56S/D62P/S63E/R100K/F105D/S107P | Ctrl | nd nd nd nd nd nd; nd nd nd nd nd nd; nd nd nd nd nd nd | 0/54 |
| R56M/A101V/T104E | Ctrl | nd nd nd nd nd nd | 0/18 |

A sequence that the file lists under several names has all its replicates listed entry by entry, parted by semicolons. In the paper, a design with two or fewer of six values counts as a poor binder. A sequence measured in both rounds can read differently, since the two assays cover different ranges. Of ten entries with the parent sequence, four were seen in most replicates (averages 0.34 to 2.37), three in one and three in none, so single entries are noisy. As a blank, each scFv also met three strains without target: over all heavy chain designs, 1% of these pairings were detected, typically at 2.08 and seldom below 0.84. The control count says in how many pairings with the empty strains this scFv gave a signal, with their mean in brackets.

The measurements come from Li et al. 2023 (doi:10.1038/s41467-023-39022-2) through the FLAb antibody collection.